# Molecular target: human mGluR5 (Homo sapiens, UniProt P41594)
# Protein sequences, listed by entry. Tags and fused reporters are not part of them. Residues count along the entry.
# UniProt P41594, 21-1180 isoform 2 limits assumed: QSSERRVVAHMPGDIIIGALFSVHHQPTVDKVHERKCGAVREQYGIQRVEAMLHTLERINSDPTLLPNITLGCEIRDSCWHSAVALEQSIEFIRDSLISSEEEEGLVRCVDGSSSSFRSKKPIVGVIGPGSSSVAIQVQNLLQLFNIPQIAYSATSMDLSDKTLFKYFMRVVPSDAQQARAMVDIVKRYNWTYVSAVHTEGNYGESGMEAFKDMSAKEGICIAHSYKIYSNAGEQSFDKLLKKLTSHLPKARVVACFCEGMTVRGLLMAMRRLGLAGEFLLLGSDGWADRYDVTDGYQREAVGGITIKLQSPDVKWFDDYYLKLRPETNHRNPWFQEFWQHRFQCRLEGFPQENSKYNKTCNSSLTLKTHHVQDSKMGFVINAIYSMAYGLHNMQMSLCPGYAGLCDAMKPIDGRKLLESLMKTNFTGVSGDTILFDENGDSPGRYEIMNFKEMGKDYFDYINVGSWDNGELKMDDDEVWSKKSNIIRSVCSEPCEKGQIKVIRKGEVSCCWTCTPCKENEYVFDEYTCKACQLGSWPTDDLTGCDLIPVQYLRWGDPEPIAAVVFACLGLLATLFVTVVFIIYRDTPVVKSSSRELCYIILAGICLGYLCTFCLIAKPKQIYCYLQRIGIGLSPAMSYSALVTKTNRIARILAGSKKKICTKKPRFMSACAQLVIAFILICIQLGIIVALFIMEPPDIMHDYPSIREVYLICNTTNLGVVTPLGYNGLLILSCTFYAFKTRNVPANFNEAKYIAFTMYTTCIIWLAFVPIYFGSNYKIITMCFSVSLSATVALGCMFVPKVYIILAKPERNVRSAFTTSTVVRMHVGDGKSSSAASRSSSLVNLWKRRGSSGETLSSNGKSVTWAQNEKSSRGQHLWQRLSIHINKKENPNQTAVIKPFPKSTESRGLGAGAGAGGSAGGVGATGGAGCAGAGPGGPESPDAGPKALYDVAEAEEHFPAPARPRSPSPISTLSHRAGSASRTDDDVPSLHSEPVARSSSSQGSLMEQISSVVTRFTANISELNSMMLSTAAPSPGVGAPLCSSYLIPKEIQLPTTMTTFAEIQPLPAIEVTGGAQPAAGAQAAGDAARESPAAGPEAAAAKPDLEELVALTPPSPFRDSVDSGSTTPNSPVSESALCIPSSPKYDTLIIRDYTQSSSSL
# Experiment: Cell-based functional Ca2+ mobilization assay, potentiation of glutamate EC20 response (H10H cell-line)
# Settings: H10H cell-line expressing recombinant human mGluR5; for Emax (%): in presence of glutamate EC20, normalized to maximal glutamate response; for pEC50: potentiation in presence of glutamate EC20
# Protocol: Human embryonic kidney (HEK) cells transfected with rat mGluR5 were plated in clear bottom assay plates for assay in a Functional Drug Screening System (FDSS). In the alternative assay, HEK cells transfected with human mGluR5 were plated for assay in the FDSS. In some cases the HEK cells transfected with human mGluR5 are the H10H cell line. Alternatively, the HEK cells transfected with human mGluR5 are the H12H cell line. […] The cells were loaded with a Ca^2+-sensitive fluorescent dye (e.g., Fluo-4), and the plates were washed and placed in the FDSS instrument. After establishment of a fluorescence baseline for about three seconds, the compounds of the present invention were added to the cells, and the response in cells was measured. Five minutes later, an mGluR5 agonist (e.g., glutamate, 3,5-dihydroxyphenylglycine, or quisqualate) was added to the cells, and the response of the cells was measured. Potentiation of the agonist response of mGluR5 by the compounds in the present invention was observed as an increase in response to non-maximal concentrations of agonist (here, glutamate) in the presence of compound compared to the response to agonist in the absence of compound.
# The above described assay can be operated in two modes. In the first mode, a range of concentrations of the present compounds were added to cells, followed by a single fixed concentration of agonist. If a compound acted as a potentiator, an EC50 value for potentiation and a maximum extent of potentiation by the compound at this concentration of agonist was determined by non-linear curve fitting. In the second mode, several fixed concentrations of the present compounds were added to various wells on a plate, followed by a range of concentrations of agonist for each concentration of present compound; the EC50 values for the agonist at each concentration of compound were determined by non-linear curve fitting. A decrease in the EC50 value of the agonist with increasing concentrations of the present compounds (a leftward shift of the agonist concentration-response curve) is an indication of the degree of mGluR5 potentiation at a given concentration of the present compound. An increase in the EC50 value of the agonist with increasing concentrations of the present compounds (a rightward shift of the agonist concentration-response curve) is an indication of the degree of mGluR5 antagonism at a given concentration of the present compound. The second mode also indicates whether the present compounds also affect the maximum response to mGluR5 to agonists.
# Human mGluR5a cDNA in pCMV6-XL6 mammalian expression plasmid was purchased from OriGene Technologies, Inc. (catalogue number SC326357) and subcloned into pcDNA3.1(−). Human embryonic kidney (HEK) 293A cells were then transfected with human mGluR5a pcDNA3.1(−) using LipofectAmine 2000 (Invitrogen) and monoclones were selected and tested for functional response using a Ca^2+ mobilization assay. Monoclones were named for the species (“H” for human) plus the location on the plate (e.g. “10H”).
# HEK cells transfected with the human mGluR5a receptor were plated at 15,000 cells/well in clear-bottomed poly-D-lysine-coated assay plates (BD Falcon) in glutamate-glutamine-free growth medium and incubated overnight at 37° C. and 5% CO2. The cell-line used to obtain the data reported herein was the H10H cell-line expressing the human mGluR5 receptor. Although the H10H cell-line was used to obtain the data shown herein, the H12H cell-line expressing the human mGluR5 receptor can also be used in these assays. The following day, the growth medium was removed and the cells were washed with assay buffer containing 1× Hank's balanced salt solution (Invitrogen, Carlsbad, Calif.), 20 mM HEPES, 2.5 mM probenecid, pH 7.4 and left with 20 μL of this reagent. Following this step, the cells were loaded with calcium indicator dye, fluo-4 AM, to a final concentration of 2 μM and incubated for 40-45 min at 37° C. […]
Emax (%),pEC50,Compound
45%,6.77,Cc1cc(C)c(C(=O)N2CCc3nc(COc4ccccc4)oc3C2)o1
28%,<5,O=C(c1ccc(F)cc1)N1CCc2nc(COc3cncnc3)oc2C1
70%,6.54,Cn1cc(C(=O)N2CCc3nc(COc4ccccc4)oc3C2)c2ccccc21
56%,6.37,CCc1ccc(C(=O)N2CCc3nc(COc4ccccc4)oc3C2)o1

# — patent US9090632B2, “Bicyclic oxazole and thiazole compounds and their use as allosteric modulators of mGluR5 receptors” (Vanderbilt University, priority 2010, dated 2015)
